Test results: patent US7842715B2, “N-benzoyl- and N-benzylpyrrolidin-3-ylamines as histamine-3 antagonists” (Wyeth LLC, priority 2006, dated 2010)

The chains behind the UniProt entries cited, without tags or fusion partners.
UniProt Q9Y5N1, whole entry: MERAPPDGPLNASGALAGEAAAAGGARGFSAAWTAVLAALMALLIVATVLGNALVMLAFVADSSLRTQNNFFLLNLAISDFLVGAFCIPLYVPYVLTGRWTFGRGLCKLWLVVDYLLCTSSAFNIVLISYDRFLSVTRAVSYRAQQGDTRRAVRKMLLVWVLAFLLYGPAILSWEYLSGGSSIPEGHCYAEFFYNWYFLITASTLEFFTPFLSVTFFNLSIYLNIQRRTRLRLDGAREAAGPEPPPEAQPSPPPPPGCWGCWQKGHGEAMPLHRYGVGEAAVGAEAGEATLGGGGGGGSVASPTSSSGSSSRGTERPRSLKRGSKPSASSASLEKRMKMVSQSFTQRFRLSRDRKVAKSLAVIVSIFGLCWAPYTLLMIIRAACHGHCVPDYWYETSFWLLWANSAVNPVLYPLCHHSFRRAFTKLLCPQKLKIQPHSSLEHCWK

Biological target: Histamine Receptor H3 (Homo sapiens, UniProt Q9Y5N1)
Assay: Cyclic AMP assay for histamine receptor H3 antagonism activity
Conditions: read-out: cAMP Kb; stable H3 cells; histamine plus 10 μM forskolin; 30 min at 30° C.
Method: Cyclic AMP Assay for Histamine Receptor H3 Antagonism Activity.
Stable H3 cells are maintained in tissue culture flask in DMEM with high glucose, 10% FBS, 1× pen/strep, 500 ug/ml GY18, until experiment. Culture media is removed and cells are washed twice with PBS w/ Ca++ and Mg++ plus 500 μM IBMX. Cells are then detached by tapping on the side of the flask and resuspend in the same buffer. Two thousand cells/well are incubated with […] histamine plus 10 μM forskolin plus various concentrations of compounds in a total volume of 30 μL in 96 well plates for 30 min at 30° C. Final test compound concentrations range from 10^-4M to 10-9.5M at full log dilutions. Cyclic AMP levels are measured using HitHunter cAMP kit from Discoverx, cat# 900041 according to manufacturer's instruction. Chemiluminescence signals are detected using Top Count (Packard). Cyclic AMP levels in control cells receiving 10 μM forskolin plus 100 nM histamine are considered 0%, and in cells receiving 10 uM forskolin plus 100 nM histamine plus 1 μM clobenpropit are considered 100%. Data are expressed as % control and analyzed using Prizm soft ware. The Kb values are calculated using the following equation, KB=EC50 or IC50/[1+(ligand/Kd)].

Kb: 10.8 nM
Structure (SMILES): CN(C)C1CCN(C(=O)c2ccc(Nc3ncnc4ccsc34)cc2)C1 (stereo not shown)
